Drawing on ChEMBL document CHEMBL4706672, “Discovery of a Napabucasin PROTAC as an Effective Degrader of the E3 Ligase ZFP91” (J Med Chem, 2021), this text covers Activity and inhibition for one compound.

By UniProt entry, the sequences of proteins in these tests, tags left out. Where a name states a change or a piece, a line headed by the entry shows the natural chain unless it says otherwise.
UniProt P40763, whole entry, looked up: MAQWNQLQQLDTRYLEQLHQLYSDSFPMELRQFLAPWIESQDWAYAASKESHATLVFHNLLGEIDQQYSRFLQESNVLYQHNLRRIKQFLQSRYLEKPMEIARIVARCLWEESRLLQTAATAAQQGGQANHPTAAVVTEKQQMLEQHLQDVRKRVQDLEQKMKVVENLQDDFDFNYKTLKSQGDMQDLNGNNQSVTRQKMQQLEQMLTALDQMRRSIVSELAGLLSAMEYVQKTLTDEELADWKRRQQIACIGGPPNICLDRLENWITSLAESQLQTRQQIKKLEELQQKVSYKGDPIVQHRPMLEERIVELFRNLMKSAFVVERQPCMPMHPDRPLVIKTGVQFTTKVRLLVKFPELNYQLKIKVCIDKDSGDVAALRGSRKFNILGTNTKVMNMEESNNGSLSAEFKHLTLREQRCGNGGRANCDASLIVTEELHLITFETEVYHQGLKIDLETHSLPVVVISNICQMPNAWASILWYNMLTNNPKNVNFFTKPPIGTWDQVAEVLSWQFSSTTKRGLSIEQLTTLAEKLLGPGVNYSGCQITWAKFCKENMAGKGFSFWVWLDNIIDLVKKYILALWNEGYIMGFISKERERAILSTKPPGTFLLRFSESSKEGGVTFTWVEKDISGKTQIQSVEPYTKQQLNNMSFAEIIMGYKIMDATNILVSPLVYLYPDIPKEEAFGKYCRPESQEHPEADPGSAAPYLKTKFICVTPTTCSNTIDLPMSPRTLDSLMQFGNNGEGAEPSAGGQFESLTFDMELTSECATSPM
UniProt Q96SW2: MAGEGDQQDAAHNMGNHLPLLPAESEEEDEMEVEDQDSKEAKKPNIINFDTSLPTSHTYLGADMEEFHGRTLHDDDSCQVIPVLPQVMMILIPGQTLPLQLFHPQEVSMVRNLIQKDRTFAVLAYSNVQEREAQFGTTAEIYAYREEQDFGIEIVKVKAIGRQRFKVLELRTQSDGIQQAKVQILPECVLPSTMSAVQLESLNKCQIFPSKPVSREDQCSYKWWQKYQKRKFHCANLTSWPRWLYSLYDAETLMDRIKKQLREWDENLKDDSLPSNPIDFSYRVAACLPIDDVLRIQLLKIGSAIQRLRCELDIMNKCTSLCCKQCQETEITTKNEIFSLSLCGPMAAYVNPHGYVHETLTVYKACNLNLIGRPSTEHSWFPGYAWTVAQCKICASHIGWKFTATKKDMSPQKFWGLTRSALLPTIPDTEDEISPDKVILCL

In experiment [1] the target is Protein cereblon/Signal transducer and activator of transcription 3 (Homo sapiens, UniProt P40763+Q96SW2). Kind of experiment: Protac activity at CRBN/STAT3 in human BxPC-3 cells assessed as decrease in STAT3 expression level at 5 uM after 16 hrs by western blot analysis. In kind it is cell-based. In a few lines: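 BxPC-3 cells seeded at 500 × 10^3 per well in 6-well plates, treated 16 h. Sonication lysis at 4 °C in Tris/NaCl/Triton/SDS buffer pH 7.4 with protease and phosphatase inhibitors, BCA protein assay, SDS-PAGE, PVDF transfer. Probed for STAT3, pSTAT3 and NQO1 with GAPDH loading control; fluorescent secondary detection.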
On the technique in general: Immunoblotting shows a protein as a band on a membrane.

Experiment [2] deals with Signal transducer and activator of transcription 3 (Homo sapiens) (UniProt P40763). Kind of experiment: Inhibition of STAT3 phosphorylation in human BxPC-3 cells at 5 uM after 16 hrs by western blot analysis. In kind it is cell-based. The procedure, abridged: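 Cells were seeded in 6-well plates (BxPC-3 500 × 10^3, MIA PaCa-2 200 × 10^3 cells/well) and exposed to compound for 16 h. Lysis was at 4 °C by sonication in Tris/NaCl/Triton/SDS buffer, pH 7.4, with protease and phosphatase inhibitors. Lysates were run on SDS-PAGE, transferred to PVDF and probed for STAT3, pSTAT3 and NQO1 with GAPDH as loading control. Immunoblots were imaged on an Odyssey system.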

The structures appear in SMILES notation. Active and inactive are the calls of the source. The calls are words filed in the database; no cut-off is given here.

Take `CC(=O)c1cc2c(o1)C(=O)c1ccccc1C2=O` [NAPABUCASIN]: the result in experiment [1] was Active. For the same compound, the inhibition result in experiment [2] is “Active”.
